By pKb is commonly meant the Kb on a negative log10 scale, so that one unit is a factor of ten. A higher pKb goes with a small Kb.

Protein sequences, listed by entry. Tags and fused reporters are not part of them.
UniProt P31389, whole entry, looked up: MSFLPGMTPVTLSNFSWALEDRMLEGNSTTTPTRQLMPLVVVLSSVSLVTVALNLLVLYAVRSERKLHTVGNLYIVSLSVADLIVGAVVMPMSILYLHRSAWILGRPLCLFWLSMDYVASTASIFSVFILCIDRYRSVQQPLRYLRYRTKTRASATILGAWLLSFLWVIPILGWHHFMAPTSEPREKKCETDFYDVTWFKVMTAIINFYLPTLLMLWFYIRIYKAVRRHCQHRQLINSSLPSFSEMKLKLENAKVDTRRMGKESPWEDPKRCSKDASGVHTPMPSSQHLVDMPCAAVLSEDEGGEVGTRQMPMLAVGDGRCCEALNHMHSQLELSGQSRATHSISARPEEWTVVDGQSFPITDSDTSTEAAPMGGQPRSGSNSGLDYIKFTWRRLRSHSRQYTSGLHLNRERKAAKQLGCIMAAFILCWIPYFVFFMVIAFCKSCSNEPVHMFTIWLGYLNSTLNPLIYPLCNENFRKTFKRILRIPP

The target of this assay is Histamine H1 receptor (Cavia porcellus) (UniProt P31389). The experiment in a line: Antagonist activity at guinea pig ileum histamine H1 receptor at 0.3 x 10'4 M. The format is functional, tissue-based.

The compound `CN1CC[C@H](N(Cc2ccccc2)c2ccccc2)CC1(C)C` came in with a pKb of 7.93.

`CN1CCC(N(Cc2ccccc2)c2ccccc2)CC1` [BAMIPINE] came in with a pKb of 8.55.

The values above are taken from ChEMBL document CHEMBL1152307, “Antimycobacterial and H1-antihistaminic activity of 2-substituted piperidine derivatives” (Bioorg Med Chem, 2008).
